Source: PubChem BioAssay (NCI)
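A five-concentration, 48-hour dose response in 96-well plates underlies each endpoint, interpolated linearly between surrounding concentrations. Abbreviation: GI50, concentration required for 50% inhibition of growth. TGI: concentration producing complete growth inhibition.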

Tests used:
Assay in all cases: DTP human tumour cell line panel, 48 h
[1] = system: 786-0 renal
[2] = system: A498 renal
[3] = system: A549 NSCLC
[4] = system: ACHN renal
[5] = system: BT-549 breast
[6] = system: CAKI-1 renal
[7] = system: CCRF-CEM leukemia
[8] = system: COLO 205 colon
[9] = system: DU-145 prostate
[10] = system: EKVX NSCLC
[11] = system: HCC-2998 colon
[12] = system: HCT-116 colon
[13] = system: HCT-15 colon
[14] = system: HL-60(TB) leukemia
[15] = system: HOP-62 NSCLC
[16] = system: HOP-92 NSCLC
[17] = system: HS 578T breast
[18] = system: HT29 colon
[19] = system: IGROV1 ovarian
[20] = system: K-562 leukemia
[21] = system: KM12 colon
[22] = system: LOX IMVI melanoma
[23] = system: M14 melanoma
[24] = system: MALME-3M melanoma
[25] = system: MDA-MB-231 breast
[26] = system: MDA-MB-435
[27] = system: MDA-N
[28] = system: MOLT-4 leukemia
[29] = system: NCI-H226 lung
[30] = system: NCI-H23 lung
[31] = system: NCI-H322M lung
[32] = system: NCI-H460 lung
[33] = system: NCI-H522 lung
[34] = system: NCI/ADR-RES ovarian
[35] = system: OVCAR-3 ovarian
[36] = system: OVCAR-4 ovarian
[37] = system: OVCAR-5 ovarian
[38] = system: OVCAR-8 ovarian
[39] = system: PC-3 prostate
[40] = system: RPMI-8226 leukemia
[41] = system: RXF 393 renal
[42] = system: SF-268 CNS
[43] = system: SF-295 CNS
[44] = system: SK-MEL-2 melanoma
[45] = system: SK-MEL-28 melanoma
[46] = system: SK-MEL-5 melanoma
[47] = system: SK-OV-3 ovarian
[48] = system: SN12C renal
[49] = system: SNB-19 CNS
[50] = system: SNB-75 CNS
[51] = system: SR leukemia
[52] = system: SW-620 colon
[53] = system: T-47D breast
[54] = system: TK-10 renal
[55] = system: U251 CNS
[56] = system: UACC-257 melanoma
[57] = system: UACC-62 melanoma
[58] = system: UO-31 renal

`CC(=O)OC1C(=O)OCC23CCC4(C)OC4C2OC2CC(OC(=O)/C=C/C=C/C(=O)OCCC1C)C3(C)C21CO1` (stereo unspecified) gave a GI50 [1] of 8.11 nM, a TGI [1] of 56 nM and a GI50 [2] of 7.14 nM. The TGI [2] was 18.1 nM, the GI50 [3] was 7.56 nM and the TGI [3] was 68.9 nM. It also gave a GI50 [4] of 6.44 nM, a TGI [4] of 219 nM and a GI50 [5] of 5.64 nM. For the same compound, the TGI [5] was 16.5 nM, the GI50 [6] was 26 nM and the TGI [6] was 152 nM. For the same compound, the GI50 [7] was 1.45 nM, the TGI [7] was 69.7 nM and the GI50 [8] was 17.6 nM. The TGI [8] was 77.2 nM, the GI50 [9] was 82.5 nM and the TGI [9] was 269 nM. For the same compound, the GI50 [10] was 376 nM, the TGI [10] was 4280 nM and the GI50 [11] was 5.24 nM. It also gave a TGI [11] of 20 nM, a GI50 [12] of 1.48 nM and a TGI [12] of 4.27 nM. For the same compound, the GI50 [13] was 3.88 nM, the TGI [13] was 59.4 nM and the GI50 [14] was 1.33 nM. It also gave a TGI [14] of 10.7 nM, a GI50 [15] of 8.46 nM and a TGI [15] of 96.6 nM. The GI50 [16] was 10.3 nM, the TGI [16] was 57.3 nM and the GI50 [17] was 24.7 nM. It also gave a TGI [17] of 65.6 nM, a GI50 [18] of 11 nM and a TGI [18] of 55.4 nM. For the same compound, the GI50 [19] was 6.17 nM, the TGI [19] was 44.8 nM and the GI50 [20] was 5.02 nM. It also gave a TGI [20] of 789 nM, a GI50 [21] of 20 nM and a TGI [21] of 105 nM. The GI50 [22] was 1.18 nM, the TGI [22] was 1.65 nM and the GI50 [23] was 4.56 nM. It also gave a TGI [23] of 12 nM, a GI50 [24] of 9.96 nM and a TGI [24] of 40.8 nM. It also gave a GI50 [25] of 132 nM, a TGI [25] of 590 nM and a GI50 [26] of 16 nM. For the same compound, the TGI [26] was 51.1 nM, the GI50 [27] was 9.39 nM and the TGI [27] was 57.6 nM. The GI50 [28] was 5.6 nM, the TGI [28] was 23.9 nM and the GI50 [29] was 7.11 nM. It also gave a TGI [29] of 22.7 nM, a GI50 [30] of 25.8 nM and a TGI [30] of 88.8 nM. For the same compound, the GI50 [31] was 186 nM, the TGI [31] was 1810 nM and the GI50 [32] was 3.19 nM. It also gave a TGI [32] of 16.1 nM, a GI50 [33] of 1.5 nM and a TGI [33] of 4.7 nM. For the same compound, the GI50 [34] was 70.8 nM, the TGI [34] was 1140 nM and the GI50 [35] was 24.9 nM. The TGI [35] was 136 nM, the GI50 [36] was 37.1 nM and the TGI [36] was 173 nM. It also gave a GI50 [37] of 54 nM, a TGI [37] of 415 nM and a GI50 [38] of 4.67 nM. The TGI [38] was 68 nM, the GI50 [39] was 13.1 nM and the TGI [39] was 60.4 nM. The GI50 [40] was 1.1 nM, the TGI [40] was 2.32 nM and the GI50 [41] was 14.6 nM. For the same compound, the TGI [41] was 68.6 nM, the GI50 [42] was 38.3 nM and the TGI [42] was 168 nM. The GI50 [43] was 15.4 nM, the TGI [43] was 73.7 nM and the GI50 [44] was 19.6 nM. It also gave a TGI [44] of 101 nM, a GI50 [45] of 6.11 nM and a TGI [45] of 25 nM. For the same compound, the GI50 [46] was 1.25 nM, the TGI [46] was 2.74 nM and the GI50 [47] was 2.05 nM. For the same compound, the TGI [47] was 22.1 nM, the GI50 [48] was 43 nM and the TGI [48] was 310 nM. For the same compound, the GI50 [49] was 4.22 nM, the TGI [49] was 32.2 nM and the GI50 [50] was 2.15 nM. The TGI [50] was 6.87 nM, the GI50 [51] was 12.5 nM and the TGI [51] was 272 nM. The GI50 [52] was 10.5 nM, the TGI [52] was 70.5 nM and the GI50 [53] was 5.19 nM. For the same compound, the TGI [53] was 26.8 nM, the GI50 [54] was 8.42 nM and the TGI [54] was 58.4 nM. The GI50 [55] was 3.88 nM, the TGI [55] was 140 nM and the GI50 [56] was 23.1 nM. The TGI [56] was 177 nM, the GI50 [57] was 24.3 nM and the TGI [57] was 93.6 nM. For the same compound, the GI50 [58] was 10.7 nM and the TGI [58] was 43.6 nM.
